For one compound, MIC results are on record in ChEMBL document CHEMBL5331051, “Cationic, amphipathic small molecules based on a triazine-piperazine-triazine scaffold as a new class of antimicrobial agents” (Eur J Med Chem, 2022).

Molecules are shown by their SMILES. In brackets after ≈: the same amount, converted by molar mass.

Holding throughout (assay type): functional
Holding throughout (conditions): time 18-24 hrs

Assay [1] concerns Escherichia coli. Kind of assay: Antibacterial activity against Escherichia coli KCTC 1682 strain assessed as bacterial growth inhibition measured at 18 to 24 hrs by microdilution assay. In general terms: Broth dilution looks for growth in wells or tubes with falling amounts of substance.
The subject of assay [2] is Staphylococcus aureus. Kind of assay: Antibacterial activity against methicillin-resistant Staphylococcus aureus CCARM 3090 strain assessed as bacterial growth inhibition measured at 18 to 24 hrs by microdilution assay.
The test system of assay [3] is Pseudomonas aeruginosa. Kind of assay: Antibacterial activity against multidrug-resistant Pseudomonas aeruginosa CCARM 2109 strain assessed as bacterial growth inhibition measured at 18 to 24 hrs by microdilution assay.
The test system of assay [4] is Staphylococcus aureus. Kind of assay: Antibacterial activity against methicillin-resistant Staphylococcus aureus CCARM 3095 strain assessed as bacterial growth inhibition measured at 18 to 24 hrs by microdilution assay.
For assay [5], the system named is Pseudomonas aeruginosa. Kind of assay: Antibacterial activity against Pseudomonas aeruginosa KCTC 1637 strain assessed as bacterial growth inhibition measured at 18 to 24 hrs by microdilution assay.
In assay [6] the test system is Staphylococcus aureus. Kind of assay: Antibacterial activity against Staphylococcus aureus KCTC 1621 strain assessed as bacterial growth inhibition measured at 18 to 24 hrs by microdilution assay.
Assay [7] deals with Staphylococcus aureus. Kind of assay: Antibacterial activity against methicillin-resistant Staphylococcus aureus CCARM 3089 strain assessed as bacterial growth inhibition measured at 18 to 24 hrs by microdilution assay.
Assay [8] deals with Staphylococcus epidermidis. As to the kind of experiment: Antibacterial activity against Staphylococcus epidermidis KCTC 1917 strain assessed as bacterial growth inhibition measured at 18 to 24 hrs by microdilution assay.
Assay [9] concerns Pseudomonas aeruginosa. Kind of assay: Antibacterial activity against multidrug-resistant Pseudomonas aeruginosa CCARM 2095 strain assessed as bacterial growth inhibition measured at 18 to 24 hrs by microdilution assay.

For `CC[C@H](C)[C@H](NC(=O)CN)C(=O)NCC(=O)N[C@@H](C)C(=O)N[C@H](C(=O)N[C@@H](CC(C)C)C(=O)N[C@@H](CCCCN)C(=O)N[C@H](C(=O)N[C@@H](CC(C)C)C(=O)N[C@H](C(=O)N[C@H](C(=O)NCC(=O)N[C@@H](CC(C)C)C(=O)N1CCC[C@H]1C(=O)N[C@@H](C)C(=O)N[C@@H](CC(C)C)C(=O)N[C@H](C(=O)N[C@@H](CO)C(=O)N[C@@H](Cc1c[nH]c2ccccc12)C(=O)N[C@H](C(=O)N[C@@H](CCCCN)C(=O)N[C@@H](CCCNC(=N)N)C(=O)N[C@@H](CCCCN)C(=O)N[C@@H](CCCNC(=N)N)C(=O)N[C@@H](CCC(N)=O)C(=O)N[C@@H](CCC(N)=O)C(N)=O)[C@@H](C)CC)[C@@H](C)CC)[C@@H](C)O)[C@@H](C)O)C(C)C)C(C)C` [MELITTIN], the MIC (commonly the lowest concentration found to suppress growth) in assay [1] was 5.6 µM (≈ 15.9 µg/mL); in assay [2], 2.8 µM (≈ 7.97 µg/mL); in [3], 2.8 µM (≈ 7.97 µg/mL); in assay [4], 2.8 µM (≈ 7.97 µg/mL); in assay [5], 2.8 µM (≈ 7.97 µg/mL); in assay [6], 5.6 µM (≈ 15.9 µg/mL). Further, the results for the minimal inhibitory concentration (MIC) in assay [7], in assay [8] and in assay [9] were 2.8 µM (≈ 7.97 µg/mL), 5.6 µM (≈ 15.9 µg/mL) and 5.6 µM (≈ 15.9 µg/mL), respectively.
